From patent US10426772B2, “Use of ergot alkaloids as an anthelmintic agent” (priority 2016, dated 2019)

Amino acid sequences for entries named in this document (tags omitted).
UniProt G4V5G4, entry or part of it: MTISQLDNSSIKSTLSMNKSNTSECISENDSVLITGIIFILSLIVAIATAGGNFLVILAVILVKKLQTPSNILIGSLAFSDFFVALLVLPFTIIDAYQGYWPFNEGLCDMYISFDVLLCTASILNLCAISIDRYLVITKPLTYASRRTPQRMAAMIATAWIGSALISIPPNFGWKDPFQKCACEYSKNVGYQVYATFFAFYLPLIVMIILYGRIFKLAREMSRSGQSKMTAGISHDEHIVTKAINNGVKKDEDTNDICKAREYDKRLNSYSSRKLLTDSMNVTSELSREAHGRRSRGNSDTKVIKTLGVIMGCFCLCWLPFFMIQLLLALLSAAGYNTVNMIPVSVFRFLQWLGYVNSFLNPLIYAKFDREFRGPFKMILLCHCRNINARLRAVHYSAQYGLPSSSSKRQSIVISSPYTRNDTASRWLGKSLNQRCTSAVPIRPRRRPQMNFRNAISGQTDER

Target: Sm.5HTR (Schistosoma mansoni, UniProt G4V5G4)
Assay type: cell-based
Procedure: HEK293 cells (ATCC CRL-1573.3) were cultured in DMEM supplemented with 10% fetal bovine serum (FBS), penicillin (100 units/mL), streptomycin (100 μg/mL), and L-glutamine (290 μg/mL). Cells were transiently transfected (ViaFect, Promega) as per the manufacturer's protocol at a density of 2×10^6 cells per T-25 cell-culture flask. Cells were transfected with plasmids encoding GloSensor (Promega) and either Sm.5HTR, (Smp_126730, GenBank accession number KF444051.1) or Sm.5HTRL (KX150867), both GPCRs being codon optimized for mammalian expression, or Hs.5HT7a (GenBank accession number NM_000872.4, R&D Systems) subcloned into pCS2(−). Cell culture reagents were from Invitrogen. Epitope tagged constructs were used to verify expression, and untagged constructs used for all luminescence assays.
For assays performed on adherent cells, HEK-293 cells were transferred one day post transfection to 96 well, solid white plates (Corning, cat #3917) coated with 0.01% poly-L-lysine (Sigma Aldrich) at a density of 5×10^4 cells/well in DMEM supplemented with 1% dialyzed FBS (Gibco). […] Plates were allowed to equilibrate at room temperature for two hours prior to performing luminescence assays (GloMax-Multi Detection System plate reader, Promega). […]
The protocol for screening is shown schematically in FIG. 5A. […] Luminescence was then read at a fixed time point (t=60 minutes, FIG. 5A). […]

NCCc1c[nH]c2ccc(O)cc12 [5-HT, Serotonin]
EC50 (5-HT, adherent cells, F20 sensor, (−) IBMX, 60 minutes, read-out: EC50): 700 nM | EC50 (read-out: EC50, activation of Sm.5HTR): 2000 ± 200 nM

Where two headings read alike, the source gives them in different places.
